Values quoted from earlier work in patent publication US20120107391A1, “THERAPY OF PLATINUM-RESISTANT CANCER” (Genentech, Inc., priority 2004, published 2012).

Details: combined with gemcitabine, phase II trials; cited from earlier work

For “Trastuzumab: Recombinant humanized version of murine HER2 antibody 4D5; light and heavy chain SEQ ID NOS. 14 and 15”, the tolerability is listed as “well tolerated with no observed cardiac or unexpected toxicities”.
